{"sequences": {"note": "Sequences of proteins named here, by UniProt entry; tags and fusion partners are left off.", "UniProt Q13258, whole entry": "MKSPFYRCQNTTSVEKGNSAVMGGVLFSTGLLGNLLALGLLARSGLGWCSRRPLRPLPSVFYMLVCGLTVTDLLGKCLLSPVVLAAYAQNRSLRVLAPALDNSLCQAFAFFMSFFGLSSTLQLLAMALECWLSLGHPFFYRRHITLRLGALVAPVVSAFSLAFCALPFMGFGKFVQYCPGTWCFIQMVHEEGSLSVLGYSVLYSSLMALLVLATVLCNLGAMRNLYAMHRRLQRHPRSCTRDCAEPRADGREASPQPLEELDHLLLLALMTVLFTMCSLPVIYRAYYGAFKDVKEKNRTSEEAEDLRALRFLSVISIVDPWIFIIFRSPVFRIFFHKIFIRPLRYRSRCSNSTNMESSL", "UniProt P43119, whole entry": "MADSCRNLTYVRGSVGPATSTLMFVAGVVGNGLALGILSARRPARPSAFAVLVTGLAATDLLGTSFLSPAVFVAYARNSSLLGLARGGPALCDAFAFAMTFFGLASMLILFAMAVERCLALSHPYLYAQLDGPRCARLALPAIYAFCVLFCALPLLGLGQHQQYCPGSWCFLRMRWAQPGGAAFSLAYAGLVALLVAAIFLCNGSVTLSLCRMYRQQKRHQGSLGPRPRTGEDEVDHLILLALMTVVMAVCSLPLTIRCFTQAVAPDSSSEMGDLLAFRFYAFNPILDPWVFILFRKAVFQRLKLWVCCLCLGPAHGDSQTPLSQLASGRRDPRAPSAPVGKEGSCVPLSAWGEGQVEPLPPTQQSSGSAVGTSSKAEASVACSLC", "UniProt P43116, whole entry": "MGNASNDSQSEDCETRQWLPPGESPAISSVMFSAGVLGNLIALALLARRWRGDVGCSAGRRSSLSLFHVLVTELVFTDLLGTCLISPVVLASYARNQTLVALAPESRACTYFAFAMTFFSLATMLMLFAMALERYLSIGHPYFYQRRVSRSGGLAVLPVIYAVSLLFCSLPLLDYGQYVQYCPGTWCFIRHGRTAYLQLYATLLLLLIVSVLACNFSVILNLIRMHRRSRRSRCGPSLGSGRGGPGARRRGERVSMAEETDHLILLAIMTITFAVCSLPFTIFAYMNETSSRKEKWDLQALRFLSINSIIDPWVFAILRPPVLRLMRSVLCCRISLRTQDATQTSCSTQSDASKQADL"}, "source": "patent US11077120B2", "about": "“Prostaglandin receptor EP2 antagonists, derivatives, compositions, and uses related thereto” (Emory University, priority 2014, dated 2021)", "key": {"[1]": {"target": "human DP1 receptors (Homo sapiens, UniProt Q13258)", "experiment": "cell-based cAMP TR-FRET assay, DP1 (agonist BW245C)", "details": "read-out: DP1 KB; Table 3; single compound concentration of 10 μM"}, "[2]": {"target": "human IP receptors (Homo sapiens, UniProt P43119)", "experiment": "cell-based cAMP TR-FRET assay, IP (agonist iloprost)", "details": "read-out: KB IP; Table 4"}, "[3]": {"experiment": "liver microsomal stability, human"}, "[4]": {"experiment": "liver microsomal stability, mouse"}, "[5]": {"target": "human EP2 receptors (Homo sapiens, UniProt P43116)", "experiment": "cell-based cAMP TR-FRET assay, rightward shift of PGE2 concentration response curve (Schild KB), EP2"}, "[6]": {"details": "read-out: EP2 KB, Table 3, Schild KB from single concentration 1 μM"}}, "note": "Where two headings read alike, the source gives them in different places."}
{"compound": "COc1ccc(/C=C/C(=O)NCCc2c(C)[nH]c3ccccc23)cc1OC", "values": [{"measurement": "Kb", "setting": "[1]", "value": 255, "unit": "nM"}, {"measurement": "Kb", "setting": "[2]", "value": 42700, "unit": "nM"}, {"measurement": "% of Parent Compound Remaining at 60 min vs. T = 0 min, Human Liver Microsomes", "setting": "[3]; 1 μM", "value": 12.4, "unit": "%"}, {"measurement": "% of Parent Compound Remaining at 60 min vs. T = 0 min, Human Liver Microsomes", "setting": "[3]; 10 μM", "value": 18.6, "unit": "%"}, {"measurement": "% of Parent Compound Remaining at 60 min vs. T = 0 min, Mouse Liver Microsomes", "setting": "[4]; 1 μM", "value": 0.2, "unit": "%"}, {"measurement": "% of Parent Compound Remaining at 60 min vs. T = 0 min, Mouse Liver Microsomes", "setting": "[4]; 10 μM", "value": 0.1, "unit": "%"}, {"measurement": "Kb", "setting": "[5]; [6]", "value": 4.9, "unit": "nM"}, {"measurement": "Kb", "setting": "[5]; read-out: KB EP2, Table 4", "value": 4.9, "unit": "nM"}]}
{"compound": "COc1cc(/C=C/C(=O)NCCn2c(C)cc3ccccc32)cc(OC)c1OCCO", "values": [{"measurement": "Kb", "setting": "[1]", "value": 19.9, "unit": "nM"}, {"measurement": "Kb", "setting": "[2]", "value": 85000, "unit": "nM"}, {"measurement": "mechanism of antagonism of EP2", "setting": "[5]; Schild regression analysis", "value": "competitive"}, {"measurement": "Kb", "setting": "[5]; [6]", "value": 3.7, "unit": "nM"}, {"measurement": "Kb", "setting": "[5]; read-out: KB EP2, Table 4", "value": 3.7, "unit": "nM"}]}
{"compound": "COc1cc(C(N)CC(=O)NCCn2c(C)cc3ccccc32)cc(OC)c1OC", "note": "(stereo not drawn)", "values": [{"measurement": "Kb", "setting": "[5]; [6]", "value": 410, "unit": "nM"}]}
{"compound": "COc1cc(/C=C/C(=O)NCc2nn(C)c3ccccc23)cc(OC)c1OC", "values": [{"measurement": "Kb", "setting": "[5]; [6]", "value": "> 1000", "unit": "nM"}]}
{"compound": "COC(=O)[C@@H](Cc1c(C)[nH]c2ccccc12)NC(=O)/C=C/c1cc(OC)c(OC)c(OC)c1", "values": [{"measurement": "Kb", "setting": "[5]; [6]", "value": "> 1000", "unit": "nM"}]}
{"compound": "COc1cc(/C=C/C(=O)OCCn2c(C)cc3ccccc32)cc(OC)c1OC", "values": [{"measurement": "Kb", "setting": "[5]; [6]", "value": 340, "unit": "nM"}]}
{"compound": "COc1ccc(CCCNC(=O)/C=C/c2cc(OC)c(OC)c(OC)c2)cc1", "values": [{"measurement": "Kb", "setting": "[5]; [6]", "value": 667, "unit": "nM"}]}
{"compound": "COc1cc(/C=C/C(=O)NCCn2c(C(F)(F)F)cc3ccccc32)cc(OC)c1OCCO", "values": [{"measurement": "Kb", "setting": "[2]", "value": 95900, "unit": "nM"}]}
{"compound": "COc1cc(/C=C/C(=O)OCCN2CCCCC2C)cc(OC)c1OC", "note": "(stereo not drawn)", "values": [{"measurement": "EP2 activity (in words)", "setting": "[5]", "value": "complete loss of activity"}, {"measurement": "Kb", "setting": "[5]; [6]", "value": "> 1000", "unit": "nM"}]}
{"compound": "COc1cc(/C=C/C(=O)NCc2c(C)n(C)c3ccccc23)cc(OC)c1OC", "values": [{"measurement": "Kb", "setting": "[5]; [6]", "value": "> 1000", "unit": "nM"}]}
{"compound": "Cc1cc2ccccc2n1CCNC(=O)C1CC1c1ccc(F)cc1", "note": "(stereo not drawn)", "values": [{"measurement": "Kb", "setting": "[5]; [6]", "value": 236, "unit": "nM"}]}
{"compound": "COC(=O)[C@H](Cc1c(C)[nH]c2ccccc12)NC(=O)/C=C/c1cc(OC)c(OC)c(OC)c1", "values": [{"measurement": "Kb", "setting": "[5]; [6]", "value": "> 1000", "unit": "nM"}]}
{"compound": "COc1cc(/C=C/C(=O)NCCc2c(C)oc3ccccc23)cc(OC)c1OC", "values": [{"measurement": "Kb", "setting": "[5]; [6]", "value": 333, "unit": "nM"}]}
{"compound": "COc1cc(/C=C/C(=O)NCCc2c(C)[nH]c3ccccc23)cc(OC)c1OC", "values": [{"measurement": "Kb", "setting": "[1]", "value": 110, "unit": "nM"}, {"measurement": "Kb", "setting": "[2]", "value": 12700, "unit": "nM"}, {"measurement": "% of Parent Compound Remaining at 60 min vs. T = 0 min, Human Liver Microsomes", "setting": "[3]; 1 μM", "value": 0.8, "unit": "%"}, {"measurement": "% of Parent Compound Remaining at 60 min vs. T = 0 min, Human Liver Microsomes", "setting": "[3]; 10 μM", "value": 5.8, "unit": "%"}, {"measurement": "% of Parent Compound Remaining at 60 min vs. T = 0 min, Mouse Liver Microsomes", "setting": "[4]; 1 μM", "value": 0, "unit": "%"}, {"measurement": "% of Parent Compound Remaining at 60 min vs. T = 0 min, Mouse Liver Microsomes", "setting": "[4]; 10 μM", "value": 0.2, "unit": "%"}]}
{"compound": "Cc1cc(/C=C/C(=O)NCCn2c(C)cc3ccccc32)cc(C)c1F", "values": [{"measurement": "Kb", "setting": "[1]", "value": 210, "unit": "nM"}, {"measurement": "Kb", "setting": "[2]", "value": 22500, "unit": "nM"}, {"measurement": "% of Parent Compound Remaining at 60 min vs. T = 0 min, Human Liver Microsomes", "setting": "[3]; 1 μM", "value": 20.9, "unit": "%"}, {"measurement": "% of Parent Compound Remaining at 60 min vs. T = 0 min, Human Liver Microsomes", "setting": "[3]; 10 μM", "value": 24.0, "unit": "%"}, {"measurement": "% of Parent Compound Remaining at 60 min vs. T = 0 min, Mouse Liver Microsomes", "setting": "[4]; 1 μM", "value": 18.3, "unit": "%"}, {"measurement": "% of Parent Compound Remaining at 60 min vs. T = 0 min, Mouse Liver Microsomes", "setting": "[4]; 10 μM", "value": 13.0, "unit": "%"}]}
{"compound": "COc1cc(/C=C/C(=O)NCCN2C(=O)Cc3ccccc32)cc(OC)c1OC", "values": [{"measurement": "Kb", "setting": "[5]; [6]", "value": "> 1000", "unit": "nM"}]}
{"compound": "COc1ccc(CCNC(=O)CCn2c(C)cc3ccccc32)cc1OC", "values": [{"measurement": "Kb", "setting": "[5]; [6]", "value": "> 1000", "unit": "nM"}]}
{"compound": "Cc1cc(/C=C/C(=O)NCCc2c(C)[nH]c3ccccc23)cc(C)c1F", "values": [{"measurement": "Kb", "setting": "[1]", "value": 900, "unit": "nM"}, {"measurement": "Kb", "setting": "[2]", "value": 21700, "unit": "nM"}, {"measurement": "% of Parent Compound Remaining at 60 min vs. T = 0 min, Human Liver Microsomes", "setting": "[3]; 1 μM", "value": 0.4, "unit": "%"}, {"measurement": "% of Parent Compound Remaining at 60 min vs. T = 0 min, Human Liver Microsomes", "setting": "[3]; 10 μM", "value": 21.4, "unit": "%"}, {"measurement": "% of Parent Compound Remaining at 60 min vs. T = 0 min, Mouse Liver Microsomes", "setting": "[4]; 1 μM", "value": 0.1, "unit": "%"}, {"measurement": "% of Parent Compound Remaining at 60 min vs. T = 0 min, Mouse Liver Microsomes", "setting": "[4]; 10 μM", "value": 51.7, "unit": "%"}, {"measurement": "Kb", "setting": "[5]; [6]", "value": 11.3, "unit": "nM"}, {"measurement": "Kb", "setting": "[5]; read-out: KB EP2, Table 4", "value": 11.3, "unit": "nM"}]}
{"compound": "COc1ccc(CCNC(=O)/C=C/c2cc(OC)c(OC)c(OC)c2)cc1OC", "values": [{"measurement": "Kb", "setting": "[5]; [6]", "value": "> 1000", "unit": "nM"}]}
